Our source for the EC50 values is patent US7632933B2, “Corticotropin releasing factor 2 receptor agonists” (priority 2002, dated 2009).

The target of one assay is T1, CRF2R (Homo sapiens, UniProt Q13324).
T1 sequence (Q13324 1-411): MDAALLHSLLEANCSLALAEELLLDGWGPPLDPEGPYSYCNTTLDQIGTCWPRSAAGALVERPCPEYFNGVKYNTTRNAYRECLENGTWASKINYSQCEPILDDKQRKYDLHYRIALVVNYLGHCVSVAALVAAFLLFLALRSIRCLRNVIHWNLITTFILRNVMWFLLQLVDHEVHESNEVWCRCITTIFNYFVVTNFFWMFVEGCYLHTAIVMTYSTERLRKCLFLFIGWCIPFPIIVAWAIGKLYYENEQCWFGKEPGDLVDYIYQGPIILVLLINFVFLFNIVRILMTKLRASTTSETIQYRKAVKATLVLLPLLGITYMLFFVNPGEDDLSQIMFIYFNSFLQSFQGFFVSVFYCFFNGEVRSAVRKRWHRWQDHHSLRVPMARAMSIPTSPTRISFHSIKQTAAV
The assay is described as follows: CRF2R agonist activity (EC50 and Emax), called comparative CRF binding. It is filed as cell-based. The conditions noted are these: CRF2R EC50 (nM), CRF2R. An excerpt:
(§1) The pharmacological activity and selectivity of the peptides of present invention can be determined using published test procedures. See, e.g, U.S. patent application Ser. No. 09/799,978. Because CRF2R and CRF1R are homologous proteins, it is expected that a certain proportion of agonists for CRF2R will also function as agonists of CRF1R. As discussed above, activation of CRF1R induces activation of the HPA axis since increased corticosteroid production leads to skeletal muscle atrophy. In most cases in which an increase in muscle mass or function is desired, it is not desirable to activate the HPA axis.
(§2) Because it is desirable to discriminate binding between CRF2R, as compared with CRF1R, the assays described above may be conducted using a cell, or membrane from a cell, which expresses only CRF2R or the assays can be conducted with a recombinant source of CRF2R. Cells expressing both forms of CRFR may be modified using homologous recombination to inactivate or otherwise disable the CRF1R gene. Alternatively, if the source of CRFR contains more than one CRFR type, the background signal produced by the receptor which is not of interest must be subtracted from the signal obtained in the assay. […] Known antagonists of CRFRs include, but are not limited to, antalarmin (CRF1R selective), antisauvagine-30 (CRF2R selective) and astressin (nonselective for CRF1R/CRF2R).
(§3) Cell-based assays include the steps of contacting cells which express CRF1R or CRF2R with a peptide of the present invention or control and measuring activation of the CRFR by measuring the expression or activity of components of the CRFR signal transduction pathways.
(§4) For example, after contact with a peptide of the present invention, lysates of the cells can be prepared and assayed for induction of cAMP. cAMP is induced in response to Gαs activation. Because Gαs is activated by receptors other than CRFR and because a test peptide may be exerting its effect through CRFRs or by another mechanism, two control comparisons are relevant for determining whether the peptide increases levels of cAMP via activation of a CRFR. One control compares the cAMP level of cells contacted with the peptide and the cAMP level of cells contacted with a control compound (i.e., the vehicle in which the peptide is dissolved).
(§5) In one example, cAMP induction is measured with the use of DNA constructs containing the cAMP responsive element linked to any of a variety of reporter genes can be introduced into cells expressing CRFRs. Such reporter genes include, but are not limited to, chloramphenicol acetyltransferase (CAT), luciferase, glucuronide synthetase, growth hormone, fluorescent proteins (e.g., Green Fluorescent Protein), or alkaline phosphatase. Following exposure of the cells to the peptide, the level of reporter gene expression can be quantitated to determine the peptide's ability to increase cAMP levels and thus determine the peptide's ability to activate the CRFR.
(§6) In addition to using cells expressing full length CRFRs, cells can be engineered which express CRFRs containing the ligand binding domain of the receptor coupled to, or physically modified to contain, reporter elements or to interact with signaling proteins. For example, a wild type CRFR or CRFR fragment can be fused to a G-protein resulting in activation of the fused G-protein upon agonist binding to the CRFR portion of the fusion protein. […] In addition, alternative pathways for induction of the CRE reporter could be eliminated to reduce basal levels.

The next assay addresses T2, CRF1R (Homo sapiens, UniProt P34998).
T2 sequence (P34998 24-415): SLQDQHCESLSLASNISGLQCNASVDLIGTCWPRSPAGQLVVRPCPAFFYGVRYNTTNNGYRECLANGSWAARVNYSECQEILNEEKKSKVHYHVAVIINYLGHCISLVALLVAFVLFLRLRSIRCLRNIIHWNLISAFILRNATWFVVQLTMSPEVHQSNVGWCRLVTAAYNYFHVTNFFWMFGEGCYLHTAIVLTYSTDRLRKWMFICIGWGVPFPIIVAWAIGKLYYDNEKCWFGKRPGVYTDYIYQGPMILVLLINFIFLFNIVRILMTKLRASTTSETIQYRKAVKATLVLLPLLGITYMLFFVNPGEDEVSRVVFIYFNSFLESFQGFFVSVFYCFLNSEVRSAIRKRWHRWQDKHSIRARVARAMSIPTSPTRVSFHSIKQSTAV
The experiment in a line: CRF1R agonist activity (EC50 and Emax), called comparative CRF binding. Format: cell-based. The note with it: CRF1R EC50 (nM), CRF1R.
Source text: as §1, §2, §3, §4, §5, §6

For the compound `CC[C@H](C)[C@H](NC(=O)[C@@H](NC(=O)[C@H](CC(=O)O)NC(=O)[C@H](CC(C)C)NC(=O)[C@H](CC(C)C)NC(=O)[C@H](CC(C)C)NC(=O)[C@H](CCCNC(=N)N)NC(=O)[C@H](CC(N)=O)NC(=O)[C@H](CC(N)=O)NC(=O)[C@H](C)NC(=O)[C@H](C)NC(=O)[C@H](CCC(N)=O)NC(=O)[C@H](CCC(N)=O)NC(=O)[C@H](CCCCN)NC(=O)[C@H](CCC(=O)O)NC(=O)[C@H](CCCCN)NC(=O)[C@H](CCC(=O)O)NC(=O)[C@H](CCC(N)=O)NC(=O)[C@H](CCCCN)NC(=O)[C@H](CCC(=O)O)NC(=O)[C@@H](NC(=O)[C@H](CCC(=O)O)NC(=O)[C@@H](NC(=O)[C@H](CCSC)NC(=O)[C@H](CCCCN)NC(=O)[C@H](CCCNC(=N)N)NC(=O)[C@H](CC(C)C)NC(=O)[C@H](CC(C)C)NC(=O)[C@H](Cc1ccc(O)cc1)NC(=O)[C@H](CCC(N)=O)NC(=O)[C@@H]1CCCN1C(=O)[C@H](CC(C)C)NC(=O)[C@H](CC(=O)O)NC(=O)[C@@H](NC(=O)[C@H](CO)NC(=O)[C@@H](NC(=O)[C@@H]1CCCN1C(=O)[C@@H]1CCCN1C(=O)CNC(=O)[C@@H]1CCC(=O)N1)[C@@H](C)CC)[C@@H](C)CC)[C@@H](C)CC)[C@@H](C)CC)[C@@H](C)O)C(N)=O` [compound 27], the values for the EC50 at CRF2R and on CRF1R were 10.7 nM and 325 nM, respectively.
Take `CC[C@H](C)[C@H](NC(=O)[C@@H](NC(=O)[C@H](CC(=O)O)NC(=O)[C@H](CC(C)C)NC(=O)[C@H](CC(C)C)NC(=O)[C@H](CC(C)C)NC(=O)[C@H](CCCNC(=N)N)NC(=O)[C@H](CC(N)=O)NC(=O)[C@H](CC(N)=O)NC(=O)[C@H](C)NC(=O)[C@H](C)NC(=O)[C@H](CCC(N)=O)NC(=O)[C@H](CCC(N)=O)NC(=O)[C@H](CCCCN)NC(=O)[C@H](CCC(=O)O)NC(=O)[C@H](CCCCN)NC(=O)[C@H](CCC(=O)O)NC(=O)[C@H](CCC(N)=O)NC(=O)[C@H](CCCCN)NC(=O)[C@H](CCC(=O)O)NC(=O)[C@@H](NC(=O)[C@H](CCC(=O)O)NC(=O)[C@@H](NC(=O)[C@H](CCSC)NC(=O)[C@H](CCCCN)NC(=O)[C@H](CCCNC(=N)N)NC(=O)[C@H](CC(C)C)NC(=O)[C@H](CC(C)C)NC(=O)[C@H](CC(=O)O)NC(=O)[C@@H](NC(=O)[C@@H]1CCCN1C(=O)[C@H](CC(C)C)NC(=O)[C@H](CC(=O)O)NC(=O)[C@@H](NC(=O)[C@H](CO)NC(=O)[C@@H](NC(=O)[C@@H]1CCCN1C(=O)[C@@H]1CCCN1C(=O)CNC(=O)[C@@H]1CCC(=O)N1)[C@@H](C)CC)[C@@H](C)CC)[C@@H](C)CC)[C@@H](C)CC)[C@@H](C)CC)[C@@H](C)O)C(N)=O` [compound 28]: the EC50 on CRF2R is no less than 100 nM; on CRF1R, greater than 1000 nM.
For `CC[C@H](C)[C@H](NC(=O)[C@@H](NC(=O)[C@H](CC(=O)O)NC(=O)[C@H](CC(C)C)NC(=O)[C@H](CC(C)C)NC(=O)[C@H](CC(C)C)NC(=O)[C@H](CCCNC(=N)N)NC(=O)[C@H](CC(N)=O)NC(=O)[C@H](CC(N)=O)NC(=O)[C@H](C)NC(=O)[C@H](C)NC(=O)[C@H](CCC(N)=O)NC(=O)[C@H](CCC(N)=O)NC(=O)[C@H](CCCCN)NC(=O)[C@H](CCC(=O)O)NC(=O)[C@H](CCCCN)NC(=O)[C@H](CCC(=O)O)NC(=O)[C@H](CCC(N)=O)NC(=O)[C@H](CCCCN)NC(=O)[C@H](CCC(=O)O)NC(=O)[C@@H](NC(=O)[C@H](CCC(=O)O)NC(=O)[C@@H](NC(=O)[C@H](CCSC)NC(=O)[C@H](CCCCN)NC(=O)[C@H](CCCNC(=N)N)NC(=O)[C@H](CC(C)C)NC(=O)[C@H](CC(C)C)NC(=O)[C@H](CCCCN)NC(=O)[C@@H](NC(=O)[C@@H]1CCCN1C(=O)[C@H](CC(C)C)NC(=O)[C@H](CC(=O)O)NC(=O)[C@@H](NC(=O)[C@H](CO)NC(=O)[C@@H](NC(=O)[C@@H]1CCCN1C(=O)[C@@H]1CCCN1C(=O)CNC(=O)[C@@H]1CCC(=O)N1)[C@@H](C)CC)[C@@H](C)CC)[C@@H](C)CC)[C@@H](C)CC)[C@@H](C)CC)[C@@H](C)O)C(N)=O` [compound 34], the EC50 is greater than 100 nM at CRF2R and greater than 1000 nM on CRF1R.
As to `CC[C@H](C)[C@H](NC(=O)[C@@H](NC(=O)[C@H](CC(=O)O)NC(=O)[C@H](CC(C)C)NC(=O)[C@H](CC(C)C)NC(=O)[C@H](CC(C)C)NC(=O)[C@H](CCCNC(=N)N)NC(=O)[C@H](CC(N)=O)NC(=O)[C@H](CC(N)=O)NC(=O)[C@H](C)NC(=O)[C@H](C)NC(=O)[C@H](CCC(N)=O)NC(=O)[C@H](CCC(N)=O)NC(=O)[C@H](CCCCN)NC(=O)[C@H](CCC(=O)O)NC(=O)[C@H](CCCCN)NC(=O)[C@H](CCC(=O)O)NC(=O)[C@H](CCC(N)=O)NC(=O)[C@H](CCCCN)NC(=O)[C@H](CCC(=O)O)NC(=O)[C@@H](NC(=O)[C@H](CCC(=O)O)NC(=O)[C@@H](NC(=O)[C@H](CCSC)NC(=O)[C@H](CCCCN)NC(=O)[C@H](CCCNC(=N)N)NC(=O)[C@H](CC(C)C)NC(=O)[C@H](CC(C)C)NC(=O)[C@H](CC(N)=O)NC(=O)[C@@H](NC(=O)[C@@H]1CCCN1C(=O)[C@H](CC(C)C)NC(=O)[C@H](CC(=O)O)NC(=O)[C@@H](NC(=O)[C@H](CO)NC(=O)[C@@H](NC(=O)[C@@H]1CCCN1C(=O)[C@@H]1CCCN1C(=O)CNC(=O)[C@@H]1CCC(=O)N1)[C@@H](C)CC)[C@@H](C)CC)[C@@H](C)CC)[C@@H](C)CC)[C@@H](C)CC)[C@@H](C)O)C(N)=O` [compound 37], the EC50 on CRF2R was greater than 100 nM; on CRF1R, greater than 1000 nM.
For the compound `CC[C@H](C)[C@H](NC(=O)[C@@H](NC(=O)[C@H](CC(=O)O)NC(=O)[C@H](CC(C)C)NC(=O)[C@H](CC(C)C)NC(=O)[C@H](CC(C)C)NC(=O)[C@H](CCCNC(=N)N)NC(=O)[C@H](CC(N)=O)NC(=O)[C@H](CC(N)=O)NC(=O)[C@H](C)NC(=O)[C@H](C)NC(=O)[C@H](CCC(N)=O)NC(=O)[C@H](CCC(N)=O)NC(=O)[C@H](CCCCN)NC(=O)[C@H](CCC(=O)O)NC(=O)[C@H](CCCCN)NC(=O)[C@H](CCC(=O)O)NC(=O)[C@H](CCC(N)=O)NC(=O)[C@H](CCCCN)NC(=O)[C@H](CCC(=O)O)NC(=O)[C@@H](NC(=O)[C@H](CCC(=O)O)NC(=O)[C@@H](NC(=O)[C@H](CCSC)NC(=O)[C@H](CCCCN)NC(=O)[C@H](CCCNC(=N)N)NC(=O)[C@H](CC(C)C)NC(=O)[C@H](CC(C)C)NC(=O)[C@@H](NC(=O)[C@@H](NC(=O)[C@@H]1CCCN1C(=O)[C@H](CC(C)C)NC(=O)[C@H](CC(=O)O)NC(=O)[C@@H](NC(=O)[C@H](CO)NC(=O)[C@@H](NC(=O)[C@@H]1CCCN1C(=O)[C@@H]1CCCN1C(=O)CNC(=O)[C@@H]1CCC(=O)N1)[C@@H](C)CC)[C@@H](C)CC)[C@@H](C)O)[C@@H](C)O)[C@@H](C)CC)[C@@H](C)CC)[C@@H](C)O)C(N)=O` [compound 42], the EC50 at CRF2R was greater than 100 nM; at CRF1R, greater than 1000 nM.
